Laboratory results: US8586020B2, “Poly(organophosphazene) composition for biomaterials” (Korea Institute of Science and Technology, priority 2011, dated 2013)

conditions: pH 7.4

| Substance | Max. Gelling Temp. [°C] |
| --- | --- |
| Poly[(isoleucineethylester)(aminomethoxy polyethyleneglycol550)(acrylate)phosphazene] [Example 9] | 38 |
| Poly[(isoleucineethylester)(aminomethoxy polyethyleneglycol550)(aminoethylmethacrylate)phosphazene] [Example 2] | 33 |
| Poly[(isoleucineethylester)(aminomethoxy polyethyleneglycol550)(aminoethylmethacrylate)phosphazene] [Example 4] | 28 |
| Poly[(isoleucineethylester)(aminomethoxy polyethyleneglycol550)(aminoethylmethacrylate)phosphazene] [Example 5] | 39 |
| Poly[(isoleucineethylester)(aminomethoxy polyethyleneglycol550)(cystineethylester)phosphazene] [Example 14] | 32 |
| Poly[(isoleucineethylester)(aminomethoxy polyethyleneglycol550)(ethyl-2-(O-glycyl)lactate)(cystine ethyl ester)phosphazene] [Example 17] | 38 |
| Poly[(isoleucineethylester)(aminomethoxy polyethyleneglycol550)(ethyl-2-(O-glycyl)lactate)(glycylcystineethylester) phosphazene] [Example 18] | 35 |
| Poly[(isoleucineethylester)(aminomethoxy polyethyleneglycol550)(glycylglyeine)(glycylglycyltyramine)phosphazene] [Example 25] | 33 |
| Poly[(isoleucineethylester)(aminomethoxy polyethyleneglycol550)(hydroxyethylmethacrylate)phosphazene] [Example 7] | 37 |
| Poly[(isoleucineethylester)(aminomethoxy polyethyleneglycol750)(acrylate)phosphazene] [Example 11] | 48 |
| Poly[(isoleueineethylester)(aminomethoxy polyethyleneglycol550)(glycylglyeine)(glyeylglycylcysteamine)phosphazene] [Example 23] | 29 |
